In patent publication US20210388040A1 one finds Unique data, which are given here for one substance.

The target of this experiment is ACTB (human) (UniProt P60709). The experiment is described as follows: HA-bait purification from HEK-293T nuclear extract, glycerol gradient fractions 13-14, mass spectrometry, peptide count.

Consider HA-DPF2 (from UniProt Q92785 1-391), for which the Unique stood at 8 peptides.
